The text below walks through data of ChEMBL document CHEMBL1132816, “Arylacetamides as peripherally restricted kappa opioid receptor agonists” (Bioorg Med Chem Lett, 2000).

Experiment [1] deals with Opioid receptors; delta & kappa (Homo sapiens) (UniProt P41145+P41143). As to the kind of experiment: Selectivity was evaluated as ratio of Ki of delta receptor by displacement of [3H]diprenorphine to that of kappa receptor.
Experiment [2] concerns the target Opioid receptors; mu & kappa (Homo sapiens) (UniProt P41145+P35372). Briefly: Selectivity was evaluated as ratio of Ki of mu receptor by displacement of [3H]diprenorphine to that of kappa receptor. (Displacement assays read how much labelled ligand stays bound in the presence of the test substance.)

Bounds are passed on as bounds.

Take `CN(C(=O)Cc1ccc(Cl)c(Cl)c1N(S(C)(=O)=O)S(C)(=O)=O)[C@H](CN1CCCC1)c1ccccc1`: the figures for the Selectivity in experiment [1] and in experiment [2] were 33 and 320, respectively.
The matching figures for `CN(C(=O)Cc1ccc(N(S(C)(=O)=O)S(C)(=O)=O)cc1)[C@H](CN1CCCC1)c1ccccc1`: over 1000 and over 1000.
In the case of `CN(C(=O)Cc1ccc(Cl)c(Cl)c1[N+](=O)[O-])[C@H](CN1CCCC1)c1ccccc1`, the Selectivity in experiment [1] came to 580; in experiment [2], 430.
On to `CN(C(=O)Cc1ccccc1N)[C@H](CN1CCCC1)c1ccccc1`, for which the Selectivity in experiment [1] and in experiment [2] was over 1000 in each case.
With `CN(C(=O)Cc1ccc(Cl)c(Cl)c1)[C@H](CN1CCCC1)c1ccccc1` [ICI-199,441], the Selectivity in experiment [1] was 600; in experiment [2], over 1000.
With `CN(C(=O)Cc1ccccc1N(S(C)(=O)=O)S(C)(=O)=O)[C@H](CN1CCCC1)c1ccccc1`, the Selectivity in experiment [1] and in experiment [2] was over 1000 each time.
On to `CN(C(=O)Cc1cccc(C(F)(F)F)c1)[C@H](CN1CCCC1)c1ccccc1`, for which the Selectivity in experiment [1] is over 1000; in experiment [2] it was over 880.
In the case of `CN(C(=O)Cc1cccc(N(S(C)(=O)=O)S(C)(=O)=O)c1)[C@H](CN1CCCC1)c1ccccc1`, the Selectivity in experiment [1] and in experiment [2] was over 1000 each time.
Turning to `CN(C(=O)Cc1cccc(N)c1)[C@H](CN1CCCC1)c1ccccc1`, the Selectivity in experiment [1] and in experiment [2] was over 1000 in each case.
Take `CN(C(=O)Cc1ccc(N)cc1)[C@H](CN1CCCC1)c1ccccc1`: the Selectivity in experiment [1] and in experiment [2] was over 1000 in each case.
As for `CN(C(=O)Cc1ccc(Cl)c(Cl)c1N)[C@H](CN1CCCC1)c1ccccc1`, the values for the Selectivity in experiment [1] and in experiment [2] were 140 and 260, respectively.
For the molecule `CN(C(=O)Cc1ccccc1C(F)(F)F)[C@H](CN1CCCC1)c1ccccc1`, the Selectivity in experiment [1] and in experiment [2] was over 1000 throughout.
